Source: patent publication US8877763B2, “Substituted pyridopyrimidine compounds and their use as FLT3 inhibitors” (Genosco, priority 2012, dated 2014)
pIC50: −log10 of the molar value. Like-named read-outs stand apart in the source and are kept apart here.

Amino acid sequences for entries named in this document (tags omitted). A change or cut given only in a name is not applied to a line headed by its entry. Residues count along the entry.
UniProt P36888, 564-993 D835Y limits assumed: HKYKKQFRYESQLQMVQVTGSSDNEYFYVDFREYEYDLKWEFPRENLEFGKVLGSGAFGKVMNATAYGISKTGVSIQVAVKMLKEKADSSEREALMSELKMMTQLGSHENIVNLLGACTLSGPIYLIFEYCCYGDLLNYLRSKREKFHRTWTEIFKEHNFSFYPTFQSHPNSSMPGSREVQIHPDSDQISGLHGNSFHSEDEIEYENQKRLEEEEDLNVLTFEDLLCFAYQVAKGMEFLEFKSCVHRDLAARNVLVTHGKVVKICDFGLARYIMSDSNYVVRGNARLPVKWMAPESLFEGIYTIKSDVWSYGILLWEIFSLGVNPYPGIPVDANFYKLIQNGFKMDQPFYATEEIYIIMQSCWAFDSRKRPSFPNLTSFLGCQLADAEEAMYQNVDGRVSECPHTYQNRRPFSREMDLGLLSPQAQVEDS
UniProt P36888, 564-993 limits assumed: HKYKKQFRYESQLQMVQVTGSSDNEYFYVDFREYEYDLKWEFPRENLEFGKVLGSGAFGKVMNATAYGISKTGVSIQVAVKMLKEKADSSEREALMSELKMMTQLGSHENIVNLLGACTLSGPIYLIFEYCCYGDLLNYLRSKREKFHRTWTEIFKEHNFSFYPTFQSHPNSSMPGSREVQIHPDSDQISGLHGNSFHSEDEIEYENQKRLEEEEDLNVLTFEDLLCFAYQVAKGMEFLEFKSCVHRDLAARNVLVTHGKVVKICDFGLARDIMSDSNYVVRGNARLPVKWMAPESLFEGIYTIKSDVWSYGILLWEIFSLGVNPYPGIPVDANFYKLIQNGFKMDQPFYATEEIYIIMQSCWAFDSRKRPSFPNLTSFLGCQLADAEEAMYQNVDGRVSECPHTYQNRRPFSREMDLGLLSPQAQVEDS
UniProt O60674, 826-1132 limits assumed: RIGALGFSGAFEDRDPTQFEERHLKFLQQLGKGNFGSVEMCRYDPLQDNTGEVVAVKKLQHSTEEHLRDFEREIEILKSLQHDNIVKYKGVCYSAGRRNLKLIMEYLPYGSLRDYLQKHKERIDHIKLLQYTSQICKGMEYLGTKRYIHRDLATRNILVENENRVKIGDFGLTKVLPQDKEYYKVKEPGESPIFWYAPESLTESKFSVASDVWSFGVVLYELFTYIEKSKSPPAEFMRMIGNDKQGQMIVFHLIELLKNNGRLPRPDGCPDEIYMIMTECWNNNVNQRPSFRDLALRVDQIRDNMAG

Experiments:
[1] = Drug exposure in rat after oral administration; settings: oral administration of 10 mg/kg
[2] = molecular target: FLT3 mutant D835Y (Homo sapiens, UniProt P36888, D835Y); assay: Inhibition of enzymatic FLT3 mutant D835Y kinase activity (Lance Ulight TR-FRET); assay type: biochemical; settings: read-out: FLT3-D835Y IC50
[3] = test system: MV4-11 cells expressing human FLT3-ITD; assay: Cell viability assay: inhibition of FLT3-ITD-positive cells (ATPLite); settings: read-out: MV4-11 cell (IC50); 72 hour incubation; tested form: HCl
[4] = molecular target: Truncated human FLT3 wildtype (Homo sapiens, UniProt P36888); assay: Inhibition of enzymatic FLT3 wildtype kinase activity (Lance Ulight TR-FRET); assay type: biochemical; settings: read-out: FLT3 wildtype IC50; tested form: HCl
[5] = molecular target: JAK2 (Homo sapiens, UniProt O60674); assay: Inhibition of enzymatic JAK2 kinase activity (Lance Ulight TR-FRET); assay type: biochemical; settings: read-out: JAK2 IC50; tested form: HCl

drug exposure [1] | pIC50 [2] | pIC50 [3] | pIC50 [4] | pIC50 ([2]; tested form: HCl) | pIC50 [5] | Compound
no drug exposure | 9.00 | – | – | – | – | O=c1[nH]ccc2nc(N[C@H]3CCNC3)nc(Nc3ccc(C(F)(F)F)cc3)c12
– | – | 8.24 | 9.70 | 7.73 | 6.41 | NC1CCN(c2nc(Nc3ccc(Oc4ccccc4)cc3)c3c(=O)[nH]cc(Br)c3n2)CC1
no drug exposure | 9.52 | – | – | – | – | O=c1[nH]ccc2nc(N[C@H]3CCNC3)nc(Nc3ccc(N4CCOCC4)cc3)c12
